{
  "sequences": {"note": "Amino acid sequences for entries named in this document (tags omitted). A change or cut given only in a name is not applied to a line headed by its entry.", "UniProt Q63016": "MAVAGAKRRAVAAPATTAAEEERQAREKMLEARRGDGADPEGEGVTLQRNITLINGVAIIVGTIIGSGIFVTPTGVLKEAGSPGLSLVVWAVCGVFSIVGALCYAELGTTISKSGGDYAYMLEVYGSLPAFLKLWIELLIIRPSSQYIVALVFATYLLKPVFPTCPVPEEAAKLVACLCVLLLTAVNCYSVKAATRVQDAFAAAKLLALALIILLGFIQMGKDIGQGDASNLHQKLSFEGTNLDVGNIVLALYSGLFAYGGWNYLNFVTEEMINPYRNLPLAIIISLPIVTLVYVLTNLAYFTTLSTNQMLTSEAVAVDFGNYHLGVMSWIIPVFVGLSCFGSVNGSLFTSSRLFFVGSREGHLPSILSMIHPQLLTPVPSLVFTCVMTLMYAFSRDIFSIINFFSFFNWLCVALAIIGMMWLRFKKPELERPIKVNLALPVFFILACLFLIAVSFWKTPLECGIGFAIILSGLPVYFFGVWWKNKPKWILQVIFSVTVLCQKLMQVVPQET"},
  "source": "paper PMC7823355",
  "about": "“Pretreatment Effect of Inflammatory Stimuli and Characteristics of Tryptophan Transport on Brain Capillary Endothelial (TR-BBB) and Motor Neuron Like (NSC-34) Cell Lines” (Biomedicines, 2020)",
  "molecular_target": "T1, LAT1 (L-type amino acid transporter 1) (Rattus norvegicus, UniProt Q63016)",
  "T1 construct": "gene Slc7a5; endogenous LAT1 in TR-BBB cells",
  "assay": "radiolabelled uptake kinetics (Km) in TR-BBB cells, with LAT1 siRNA knockdown",
  "assay_type": "cell-based",
  "data": [
    {"smiles": "N[C@@H](Cc1c[nH]c2ccccc12)C(=O)O", "note": "[L-tryptophan]", "values": [
      {"measurement": "Km", "value": "121 ± 11", "unit": "µM"}
    ]}
  ]
}
